What was measured:
[1] = target: T1, CRF1R (Homo sapiens, UniProt P34998); experiment: CRF1R agonist activation (EC50 / Emax), called comparative CRF binding; type: cell-based; details: for Emax: read-out: CRF1R Emax
T1 sequence (P34998 24-415): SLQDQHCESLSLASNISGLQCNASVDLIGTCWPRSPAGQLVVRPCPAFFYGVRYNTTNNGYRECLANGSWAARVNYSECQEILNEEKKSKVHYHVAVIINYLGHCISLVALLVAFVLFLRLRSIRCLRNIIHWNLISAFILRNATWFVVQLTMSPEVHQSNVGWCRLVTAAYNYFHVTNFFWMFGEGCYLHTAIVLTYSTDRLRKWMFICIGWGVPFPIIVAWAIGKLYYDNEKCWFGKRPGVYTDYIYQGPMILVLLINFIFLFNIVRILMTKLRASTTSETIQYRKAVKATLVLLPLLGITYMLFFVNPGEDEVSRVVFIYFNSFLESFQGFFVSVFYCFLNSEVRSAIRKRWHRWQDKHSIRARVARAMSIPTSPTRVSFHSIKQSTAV
Outline: (§1)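 Agonism at each human CRF receptor subtype is inferred from increased cAMP relative to vehicle, using cells expressing that subtype and either lysate cAMP measurement or a cAMP response element reporter.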

[2] = target: T2, CRF2R (Homo sapiens, UniProt Q13324); experiment: CRF2R agonist activation (EC50 / Emax), called comparative CRF binding; type: cell-based; details: for Emax: read-out: CRF2R Emax
T2 sequence (Q13324 1-411): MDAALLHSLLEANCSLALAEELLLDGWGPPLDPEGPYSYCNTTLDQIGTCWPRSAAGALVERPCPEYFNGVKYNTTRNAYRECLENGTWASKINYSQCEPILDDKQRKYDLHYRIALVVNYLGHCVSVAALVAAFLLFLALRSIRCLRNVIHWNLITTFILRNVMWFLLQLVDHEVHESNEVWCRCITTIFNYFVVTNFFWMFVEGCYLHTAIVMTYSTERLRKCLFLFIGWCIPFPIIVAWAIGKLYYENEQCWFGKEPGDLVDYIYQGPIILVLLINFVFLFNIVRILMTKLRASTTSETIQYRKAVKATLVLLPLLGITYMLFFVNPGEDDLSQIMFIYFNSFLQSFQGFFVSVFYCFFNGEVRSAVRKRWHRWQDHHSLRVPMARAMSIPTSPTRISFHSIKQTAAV
Outline: as §1

Compound | EC50 ([1]; CRF1R EC50) [nM] | Emax [1] [%] | EC50 [2] [nM] | Emax [2] [%]
CC[C@H](C)[C@H](NC(=O)[C@@H](NC(=O)[C@H](CC(=O)O)NC(=O)[C@H](CC(C)C)NC(=O)[C@H](CC(C)C)NC(=O)[C@H](CC(C)C)NC(=O)[C@H](CCCNC(=N)N)NC(=O)[C@H](CC(N)=O)NC(=O)[C@H](CC(N)=O)NC(=O)[C@H](C)NC(=O)[C@H](C)NC(=O)[C@H](CCC(N)=O)NC(=O)[C@H](CCC(N)=O)NC(=O)[C@H](CCCCN)NC(=O)[C@H](CCC(=O)O)NC(=O)[C@H](CCCCN)NC(=O)[C@H](CCC(=O)O)NC(=O)[C@H](CCC(N)=O)NC(=O)[C@H](CCCCN)NC(=O)[C@H](CCC(=O)O)NC(=O)[C@@H](NC(=O)[C@H](CCC(=O)O)NC(=O)[C@@H](NC(=O)[C@H](CCSC)NC(=O)[C@H](CCCCN)NC(=O)[C@H](CCCNC(=N)N)NC(=O)[C@H](CC(C)C)NC(=O)[C@H](CC(C)C)NC(=O)[C@H](CCC(=O)O)NC(=O)[C@@H](NC(=O)[C@@H]1CCCN1C(=O)[C@H](CC(C)C)NC(=O)[C@H](CC(=O)O)NC(=O)[C@@H](NC(=O)[C@H](CO)NC(=O)[C@@H](NC(=O)[C@@H]1CCCN1C(=O)[C@@H]1CCCN1C(=O)CNC(=O)[C@@H]1CCC(=O)N1)[C@@H](C)CC)[C@@H](C)CC)[C@@H](C)CC)[C@@H](C)CC)[C@@H](C)CC)[C@@H](C)O)C(N)=O [compound 76] | > 100 | 7 | 91.4 | 76
CC[C@H](C)[C@H](NC(=O)[C@H](CCCNC(=N)N)NC(=O)[C@H](C)NC(=O)[C@H](CC(C)C)NC(=O)[C@H](CC(C)C)NC(=O)[C@H](CCCNC(=N)N)NC(=O)[C@H](C)NC(=O)[C@H](CC(N)=O)NC(=O)[C@H](CC(N)=O)NC(=O)[C@H](C)NC(=O)[C@H](C)NC(=O)[C@H](CCC(N)=O)NC(=O)[C@H](CCC(N)=O)NC(=O)[C@H](CCCCN)NC(=O)[C@H](CCC(=O)O)NC(=O)[C@H](CCCCN)NC(=O)[C@H](CCC(=O)O)NC(=O)[C@H](CCC(N)=O)NC(=O)[C@H](CCCCN)NC(=O)[C@H](CCC(=O)O)NC(=O)[C@@H](NC(=O)[C@H](CCC(=O)O)NC(=O)[C@@H](NC(=O)[C@H](CCSC)NC(=O)[C@H](CCCCN)NC(=O)[C@H](CCCNC(=N)N)NC(=O)[C@H](CC(C)C)NC(=O)[C@H](CC(C)C)NC(=O)[C@H](Cc1c[nH]c2ccccc12)NC(=O)[C@@H](NC(=O)[C@@H]1CCCN1C(=O)[C@H](CC(C)C)NC(=O)[C@H](CC(=O)O)NC(=O)[C@@H](NC(=O)[C@H](CO)NC(=O)[C@@H](NC(=O)[C@@H]1CCCN1C(=O)[C@@H]1CCCN1C(=O)CNC(=O)[C@@H]1CCC(=O)N1)[C@@H](C)CC)[C@@H](C)CC)[C@@H](C)O)[C@@H](C)CC)[C@@H](C)CC)C(N)=O [compound 292] |  | 7 |  | 86.1
CC[C@H](C)[C@H](NC(=O)[C@@H](NC(=O)[C@H](CC(=O)O)NC(=O)[C@H](CC(C)C)NC(=O)[C@H](CC(C)C)NC(=O)[C@H](CC(C)C)NC(=O)[C@H](C)NC(=O)[C@H](CC(N)=O)NC(=O)[C@H](CC(N)=O)NC(=O)[C@H](C)NC(=O)[C@H](C)NC(=O)[C@H](CCC(N)=O)NC(=O)[C@H](CCC(N)=O)NC(=O)[C@H](CCCCN)NC(=O)[C@H](CCC(=O)O)NC(=O)[C@H](CCCCN)NC(=O)[C@H](CCC(=O)O)NC(=O)[C@H](CCC(N)=O)NC(=O)[C@H](CCCCN)NC(=O)[C@H](CCC(=O)O)NC(=O)[C@@H](NC(=O)[C@H](CCC(=O)O)NC(=O)[C@@H](NC(=O)[C@H](CCSC)NC(=O)[C@H](CCCCN)NC(=O)[C@H](CCCNC(=N)N)NC(=O)[C@H](CC(C)C)NC(=O)[C@H](CC(C)C)NC(=O)[C@H](Cc1ccc(O)cc1)NC(=O)[C@@H](NC(=O)[C@@H]1CCCN1C(=O)[C@H](CC(C)C)NC(=O)[C@H](CC(=O)O)NC(=O)[C@@H](NC(=O)[C@H](CO)NC(=O)[C@@H](NC(=O)[C@@H]1CCCN1C(=O)[C@@H]1CCCN1C(=O)CNC(=O)[C@@H]1CCC(=O)N1)[C@@H](C)CC)[C@@H](C)CC)[C@@H](C)CC)[C@@H](C)CC)[C@@H](C)CC)[C@@H](C)O)C(N)=O [compound 236] |  | 15 |  | 97

From US6936585B2, “Corticotropin releasing factor 2 receptor agonists” (priority 2002, dated 2005)
